Calls of active or inactive are those of the source. No cut-off for these calls is given here.
Target: T1, Kinesin-like protein KIF11 (Homo sapiens) (UniProt P52732)
T1 sequence (whole entry): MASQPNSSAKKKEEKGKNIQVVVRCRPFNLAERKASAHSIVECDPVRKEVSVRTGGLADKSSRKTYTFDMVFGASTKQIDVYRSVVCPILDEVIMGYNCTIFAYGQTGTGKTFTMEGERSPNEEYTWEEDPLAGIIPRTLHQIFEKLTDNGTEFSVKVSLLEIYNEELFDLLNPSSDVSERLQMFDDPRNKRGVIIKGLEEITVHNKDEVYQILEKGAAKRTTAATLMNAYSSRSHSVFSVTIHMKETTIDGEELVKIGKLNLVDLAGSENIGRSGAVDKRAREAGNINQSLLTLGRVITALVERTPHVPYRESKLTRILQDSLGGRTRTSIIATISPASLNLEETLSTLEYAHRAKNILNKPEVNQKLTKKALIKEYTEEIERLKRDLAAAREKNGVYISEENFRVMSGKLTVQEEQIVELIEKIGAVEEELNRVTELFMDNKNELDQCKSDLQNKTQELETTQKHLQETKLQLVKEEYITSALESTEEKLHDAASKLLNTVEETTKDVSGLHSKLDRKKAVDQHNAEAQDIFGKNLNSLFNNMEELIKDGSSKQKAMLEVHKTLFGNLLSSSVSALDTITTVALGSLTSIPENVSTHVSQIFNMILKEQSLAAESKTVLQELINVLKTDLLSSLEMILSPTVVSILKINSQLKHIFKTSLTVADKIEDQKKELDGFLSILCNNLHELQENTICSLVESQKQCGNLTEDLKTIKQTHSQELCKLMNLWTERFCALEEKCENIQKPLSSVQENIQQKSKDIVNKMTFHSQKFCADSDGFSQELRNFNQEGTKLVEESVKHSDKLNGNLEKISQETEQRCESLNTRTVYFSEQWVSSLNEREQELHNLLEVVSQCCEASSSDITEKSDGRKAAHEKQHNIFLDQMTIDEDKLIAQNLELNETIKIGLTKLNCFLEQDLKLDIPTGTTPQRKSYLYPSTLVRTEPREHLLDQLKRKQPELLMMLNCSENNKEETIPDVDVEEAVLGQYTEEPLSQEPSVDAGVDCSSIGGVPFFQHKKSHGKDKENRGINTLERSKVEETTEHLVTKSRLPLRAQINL
Assay: Inhibition of basal EG5 ATPase activity (unknown origin) by pyruvate kinase/lactate dehydrogenase enzyme coupled photometric assay

- inhibition: inactive
SMILES: CC(=O)N1N=C(NC2=NC(=O)/C(=C/c3ccccc3[N+](=O)[O-])S2)SC1(C)c1ccccc1 (stereo unspecified)

Reference: ChEMBL document CHEMBL4229486, “Design and synthesis of novel thiadiazole-thiazolone hybrids as potential inhibitors of the human mitotic kinesin Eg5” (Bioorg Med Chem Lett, 2018)
